Patent US20260232830A1, “ANTIGEN BINDING MOLECULE SPECIFICALLY BINDING TO EGFR AND MUC1, DRUG CONJUGATE THEREOF, AND MEDICAL USE THEREOF” (Jiangsu Hengrui Pharmaceuticals Co., Ltd., priority 2023, published 2026)
Positions count from the first letter of the chain named.

B1: M6-H7L2: humanized antibody of M6: huM6VH7 + huM6VL2 (antibody)
heavy: EVQLVQSGAEVKKPGASVKVSCKASGYRFIPYWIEWVRERPGHGLEWMGEILPGTGRTNYNEKFKGRVTFTADTSTNTVYMELSSLTNEDTAVYYCARYGEDTSGGYYAVDYWGQGTTVTVSSASTKGPSVFPLAPSSKSTSGGTAALGCLVKDYFPEPVTVSWNSGALTSGVHTFPAVLQSSGLYSLSSVVTVPSSSLGTQTYICNVNHKPSNTKVDKKV[human IgG1 Fc not spelt out]
light: EIVLTQSPATLSLSPGERATLSCRASESVNILGTNLIHWYQQKPGQAPKLLIYHASNLETGIPARFSGSGSRTDFTLTISSLEPEDFAVYYCLQSRKIPWTFGGGTKVEIKRTVAAPSVFIFPPSDEQLKSGTASVVCLLNNFYPREAKVQWKVDNALQSGNSQESVTEQDSKDSTYSLSSTLTLSKADYEKHKVYACEVTHQGLSSPVTKSFNRGEC
B2: M6-H7L3: humanized antibody of M6: huM6VH7 + huM6VL3 (antibody)
heavy: B1 heavy
light: B1 light with E1D, L4M, F87V
B3: M6-H5L3: humanized antibody of M6: huM6VH5 + huM6VL3 (antibody)
heavy: B1 heavy with N88S
light: B1 light with E1D, L4M, F87V
B4: M6-H6L3: humanized antibody of M6: huM6VH6 + huM6VL3 (antibody)
heavy: B1 heavy with S85Q, N88S
light: B1 light with E1D, L4M, F87V
B5: F4-1-H2L1: humanized antibody of F4-1: huF4-1VH2 + huF4-1VL1 (antibody)
heavy: EVQLVQSGAEVKKPGASVKVSCKASGYTFTDNYINWVRQAPGQRLEYIGWIYPGSGNNKFNEKFKGRVTLTVDTSARTAYMELSSLRSEDTAVYYCARDYPFPSYHYGMDYWGQGTTVTVSSASTKGPSVFPLAPSSKSTSGGTAALGCLVKDYFPEPVTVSWNSGALTSGVHTFPAVLQSSGLYSLSSVVTVPSSSLGTQTYICNVNHKPSNTKVDKKV[human IgG1 Fc not spelt out]
light: DIQMTQSPSSLSASVGDRVTITCSASSSVSYIHWFQQKPGKAPKLWIYSTSNLASGVPSRFSGSGSGTDFTLTISSLQPEDFATYYCQQRSSYPPTFGGGTKVEIKRTVAAPSVFIFPPSDEQLKSGTASVVCLLNNFYPREAKVQWKVDNALQSGNSQESVTEQDSKDSTYSLSSTLTLSKADYEKHKVYACEVTHQGLSSPVTKSFNRGEC
B6: F4-1-H2L3: humanized antibody of F4-1: huF4-1VH2 + huF4-1VL3 (antibody)
heavy: B5 heavy
light: B5 light with M4L, K41T, A42S, I74V
B7: F4-1-H1L3: humanized antibody of F4-1: huF4-1VH1 + huF4-1VL3 (antibody)
heavy: B5 heavy with I48M, L70I, R77S
light: B5 light with M4L, K41T, A42S, I74V
B8: F4-1-H3L2: humanized antibody of F4-1: huF4-1VH3 + huF4-1VL2 (antibody)
heavy: B5 heavy with V2I, K12V, A40R, R44G
light: B5 light with M4L, I74V
B9: F4-1-H3L1: humanized antibody of F4-1: huF4-1VH3 + huF4-1VL1 (antibody)
heavy: B5 heavy with V2I, K12V, A40R, R44G
light: B5 light

The molecules below were run on CHOK1-cyno-MUC1-C cells (assay: FACS-based determination of affinity of chimeric and humanized anti-MUC1-C antibodies). Details: Table 19-2, Test 2.
Assay type: binding
Parameters: key: “+” means that there was binding; “−” means that there was no binding
Description: HCC827-human-MUC1-C cells (in-house constructed overexpression stably transfected cell strain), CHOK1-cyno-MUC1-C cells (in-house constructed overexpression stably transfected cell strain), and T47D cells (human ductal breast cancer cells) were separately digested and added to a 96-well plate at 1E5 cells/well. After the plate was centrifuged at 300 g for 5 min, the supernatant was discarded, and the cells were washed once with a PBS buffer containing 2% FBS. The antibodies were 5-fold diluted from a starting concentration of 20 μg/mL using a PBS buffer containing 2% FBS to obtain a total of 8 concentration gradients. The antibody samples were added at 100 μL/well, and the cells were resuspended and incubated at 4° C. for 1 h. After the plate was centrifuged at 300 g for 5 min, the supernatant was discarded, and the cells were washed twice with a PBS buffer containing 2% FBS. […] After the plate was centrifuged at 300 g for 5 min, the supernatant was discarded, and the cells were washed twice with a PBS buffer containing 2% FBS. The cells were resuspended in 100 μL of a PBS buffer containing 2% FBS and analyzed using an instrument. […] The experimental process was the same as that in Test Example 1 “FACS-Based Determination of Affinity of Chimeric Antibodies”. In addition, CHOK1-human-MUC1-C cells (in-house constructed overexpression stably transfected cell strain) were used for evaluation.

Molecule | Qualitative determination
B1 | +
B2 | +
B3 | +
B4 | +

Same assay, conditions: Table 19-3

Molecule | Qualitative determination
B5 | +
B6 | +
B7 | +
B8 | +
B9 | +
